Here are results for one compound from patent US20070160684A1, “Methods for increasing cancer cell chemosensitivity” (priority 2005, published 2007).

Test [1] relates to Pa-4/HMGA2 cells. Briefly: FACS analysis after caffeine and Dox (G2/M, sub-G1). It counts as cell-based. The note with it: 4 mM caffeine 1 hour, then 1 μM Dox and 4 mM caffeine 48 hours. As for the experimental part:
Pa-4 and Pa-4/HMGA2 cells were seeded at 50-80% confluency in 35 mm dishes and serum starved overnight to synchronize cell cycle. […] Following treatment, cells were fixed in 70% ethanol overnight, stained with 20 μg/ml propidium iodide, and subjected to FACS analysis.
Apoptosis was quantified by assessing sub-G1 cell populations.

The subject of test [2] is Pa-4 cells.

In the case of `Cn1c(=O)c2c(ncn2C)n(C)c1=O` [caffeine], the “effect on Dox-induced G2/M arrest” value in test [1] is recorded as “greatly reduced Dox-induced G2/M arrest”. In addition, the “cell cycle distribution / cells in G2/M, single agent” value in test [2] (4 mM caffeine or 1 μM Dox, 48 hours) was “had no effect on cell cycle distribution”. Also, the “effect on Dox-induced apoptosis” value in test [2] (caffeine with Dox) is given as “did not increase the rate of Dox-induced apoptosis”.
